# Reported water solubility values for industrial, environmental and drug-like chemicals

Data: OPERA 2.9 data sets, kmansouri/OPERA on GitHub.

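OPERA's authors assembled the values from existing databases and did not measure them anew. One number stands for a compound and property, with no spread given. How each value was measured is not recorded, so precision varies. Where a salt, mixture or single isomer is drawn, the source does not say that exactly this form was tested. Some entries may be limits or estimates that an upstream database listed as plain numbers.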

Solubility in water is on a log10 molar scale (set defined at 25 °C).
"–" marks a cell with nothing listed here.

SMILES	name	log solubility (log10 mol/L)
NC(=O)Nc1cccc(F)c1	Urea, (m-fluorophenyl)-	-1.429
CC1CCC(C(C)C)C(OCC(O)CO)C1 (configuration not stated)	–	-2.006
CCCCCCOC(=O)CCCCC(=O)OCCCCCC	Dihexyl hexanedioate	-5.083
CC1C(C)(C)C2=C(C3OCOCC3CC2)C1(C)C (configuration not stated)	–	-4.275
Nc1ccn([C@@H]2O[C@H](CO)[C@@H](O)C2(F)F)c(=O)n1	Gemcitabine	-1.072
CCC(SC(CC)C(=O)O)C(=O)O (configuration not stated)	meso-2,2'-Thiobis-butanoic acid	-0.709
CC(=CCC1CC=C(C)C1(C)C)CO (stereo in doubt)	–	-3.515
Cc1cccc(C)n1	2,6-Dimethylpyridine	0.45
Oc1cn2c(n1)Nc1ccc(Cl)c(Cl)c1C2	Anagrelide	-2.963
CCCCCCCCCC(C)=O	2-Undecanone	-6.979
CCCCNC(=S)N(CCCC)CCCC	Tributylthiourea	-4.184
CCCCC1(CCCC)c2ccccc2-c2ccc(C(=O)C(C)(C)N3CCOCC3)cc21	–	-6.788
CC(=O)C(/N=N/c1ccc(S(=O)(=O)[O-])cc1[N+](=O)[O-])C(=O)Nc1ccccc1C.CC(=O)C(/N=N/c1ccc(S(=O)(=O)[O-])cc1[N+](=O)[O-])C(=O)Nc1ccccc1C.[Ca+2] (stereo partly drawn)	–	-7.74
COC(=O)C(C#N)C(=O)CC(C)C (configuration not stated)	2-Cyano-5-methyl-3-oxo-hexanoic acid methyl ester	-2.725
CCCCCCCCCCCCCCCCCCOC(=O)CCc1cc(C(C)(C)C)c(O)c(C(C)(C)C)c1	Octadecyl 3-(3,5-di-tert-butyl-4-hydroxyphenyl)propionate	-8.498
CC(C)OC(=O)CCC(=O)OC(C)C	Dipropan-2-yl butanedioate	-1.729
c1cc(OCC2CO2)cc(N(CC2CO2)CC2CO2)c1 (configuration not stated)	–	-2.193
CCCCNC(=O)NS(=O)(=O)c1ccccc1	Phenbutamide	-3.05
CCNC(N)=S	Ethylthiourea	-0.64
CCOC1C(C)CCCC1C (configuration not stated)	2-Ethoxy-1,3-dimethylcyclohexane	-4.343
COc1ccc(CC(C#N)C(=O)O)cc1OC (configuration not stated)	2-Cyano-3-(3,4-dimethoxyphenyl)propanoic acid	-1.801
CNC1(C)C2CCC(C2)C1(C)C (configuration not stated)	Mecamylamine	-3.13
NNS(=O)(=O)c1ccc(Oc2ccc(S(=O)(=O)NN)cc2)cc1	4,4'-Oxybis(benzenesulfohydrazide)	-3.758
CC(F)(F)F	1,1,1-Trifluoroethane	-2.043
CCC(C)CCCC(C)CCCC(C)C (configuration not stated)	2,6,10-Trimethyldodecane	-8.929
O=c1[c-](-c2cccc(C(F)(F)F)c2)c(=O)[n+]2ccccc2n1Cc1cncnc1	Triflumezopyrim	-3.239
CC(=O)OC1=CC2=CC[C@@H]3[C@H](CC[C@@]4(C)[C@H]3CCC43OCC(C)(C)CO3)[C@@]2(C)CC1	–	-6.317
Nc1c(OCCCCCCO)cc(O)c2c1C(=O)c1ccccc1C2=O	–	-6.228
Cc1ccccc1C(OCCN(C)C)c1ccccc1 (configuration not stated)	Orphenadrine	-3.953
O=C(O)c1ccc(C(=O)O)o1	2,5-Furandicarboxylic acid	-2.217
CC(=O)OCCN(CCC#N)c1ccc(N=Nc2ccc([N+](=O)[O-])cc2Cl)cc1	–	-6.646
O=C1OCCN1N=CC=Cc1ccc([N+](=O)[O-])o1	3-((3-(5-Nitro-2-furyl)allylidene)amino)-2-oxazolidinone	-4.418
C=C1COC(C)(C)O1	4-Methylen-2,2-dimethyl-1,3-dioxolane	-1.735
COc1ccc(C(=O)Nc2ccccc2)cc1N	3-Amino-4-methoxybenzanilide	-3.866
COc1ccccc1C	Benzene, 1-methoxy-2-methyl-	-2.689
CC1CCC(C)(C(=O)O)C1(C)C (configuration not stated)	1,2,2,3-Tetramethylcyclopentane-1-carboxylic acid	-3.027
CO[C@@H]1C=CO[C@]2(C)Oc3c(C)c(O)c4c(c3C2=O)C(=O)C(N)=C(NC(=O)C(C)=CC=C[C@@H](C)[C@@H](O)[C@H](C)[C@H](O)[C@H](C)[C@@H](OC(C)=O)[C@H]1C)C4=O	–	-3.568
CCC1(C)Nc2cccc3cccc(c23)N1	2-Ethyl-2-methyl-2,3-dihydroperimidine	-3.248
C=CCN(CCC#N)c1cc(NC(C)=O)c(N=Nc2c(Br)cc([N+](=O)[O-])cc2[N+](=O)[O-])cc1OC	–	-8.9
CCCCCCOc1ccc(-c2nc(-c3ccccc3)nc(-c3ccccc3)n2)c(O)c1	2-(4,6-Diphenyl-s-triazin-2-yl)-5-hexyloxyphenol	-9.152
CCOC(=O)C1=NN(c2ccccc2)C(=O)C1	Ethyl 5-oxo-1-phenyl-4,5-dihydro-1H-pyrazole-3-carboxylate	-3.255
Cc1ccc(Nc2c(F)cccc2Cl)c(CC(=O)O)c1	–	-4.728
C[C@@H](OC(=S)N(C)C)C(=O)O	(2R)-2-[(Dimethylcarbamothioyl)oxy]propanoic acid	-0.947
C=CCOC(=O)[C@@H]1[C@@H](C)CCCC1(C)C	(1R,6S)-Allyl 2,2,6-trimethylcyclohexanecarboxylate	-4.174
CCCc1nc(C)c2c(=O)nc(-c3cc(S(=O)(=O)O)ccc3OCC)[nH]n12	–	-2.293
C=CC(=O)OCCCCOC(=O)Oc1ccc(C(=O)O)cc1	–	-3.424
CCCCCCCCCCCCCC[N+](C)(C)C.CCCCCCCCCCCCCC[N+](C)(C)C.O=C([O-])C(=O)[O-]	Bis(N,N,N-trimethyl-1-tetradecanaminium) ethanedioate	-2.898
CCCCCCCCCCCCOC(=O)c1cc(O)c(O)c(O)c1	Lauryl gallate	-6.393
CC(C)CCCC(C)CC=O (configuration not stated)	3,7-Dimethyloctanal	-3.806
CCOC(=O)Cc1cccc2ccccc12	Ethyl 1-naphthaleneacetate	-3.959
C#CC(C)(O)CCC=C(C)C (configuration not stated)	Dehydrolinalool	-1.772
Nc1ccc(S(=O)(=O)Nc2nncs2)cc1	2-Sulfanilamido-1,3,4-thiadiazole	-2.868
CC(C)CCCCCCCCCCCCCCC(=O)OCC(COC(=O)CCCCCCCCCCCCCCC(C)C)(COC(=O)CCCCCCCCCCCCCCC(C)C)COC(=O)CCCCCCCCCCCCCCC(C)C	Pentaerythrityl tetraisostearate	-7.381
Cc1ccc(C(=O)O)c(Oc2ccccc2CC(=O)O)c1C	2-[2-(Carboxymethyl)phenoxy]-3,4-dimethylbenzoic acid	-4.222

The 6 lowest values of log solubility among the entries above:

| SMILES | name | log solubility (log10 mol/L) |
|---|---|---|
| CCCCCCOc1ccc(-c2nc(-c3ccccc3)nc(-c3ccccc3)n2)c(O)c1 | 2-(4,6-Diphenyl-s-triazin-2-yl)-5-hexyloxyphenol | -9.152 |
| CCC(C)CCCC(C)CCCC(C)C (configuration not stated) | 2,6,10-Trimethyldodecane | -8.929 |
| C=CCN(CCC#N)c1cc(NC(C)=O)c(N=Nc2c(Br)cc([N+](=O)[O-])cc2[N+](=O)[O-])cc1OC | – | -8.9 |
| CCCCCCCCCCCCCCCCCCOC(=O)CCc1cc(C(C)(C)C)c(O)c(C(C)(C)C)c1 | Octadecyl 3-(3,5-di-tert-butyl-4-hydroxyphenyl)propionate | -8.498 |
| CC(=O)C(/N=N/c1ccc(S(=O)(=O)[O-])cc1[N+](=O)[O-])C(=O)Nc1ccccc1C.CC(=O)C(/N=N/c1ccc(S(=O)(=O)[O-])cc1[N+](=O)[O-])C(=O)Nc1ccccc1C.[Ca+2] (stereo partly drawn) | – | -7.74 |
| CC(C)CCCCCCCCCCCCCCC(=O)OCC(COC(=O)CCCCCCCCCCCCCCC(C)C)(COC(=O)CCCCCCCCCCCCCCC(C)C)COC(=O)CCCCCCCCCCCCCCC(C)C | Pentaerythrityl tetraisostearate | -7.381 |